{
  "source": "paper PMC7677376",
  "about": "(Cell Discovery, 2020)",
  "test_system": "Nc1ncnc2c1ncn2[C@@H]1O[C@H](COP(=O)(O)OP(=O)(O)OP(=O)(O)O)[C@@H](O)[C@H]1O",
  "experiment": "purified protein",
  "details": "MlaFEDB complex; ATP hydrolysed at MlaF",
  "data": [
    {"substance": "MlaFEDB (Acinetobacter baumannii)", "values": [
      {"measurement": "Km", "result": "85 ± 5", "unit": "µM"}
    ]}
  ]
}
